Reference: patent US12583836B2 (Anaxis Pharma Pty Ltd, priority 2020, dated 2026)

Amino acid sequences for entries named in this document (tags omitted). A change or cut given only in a name is not applied to a line headed by its entry.
UniProt Q9Y572: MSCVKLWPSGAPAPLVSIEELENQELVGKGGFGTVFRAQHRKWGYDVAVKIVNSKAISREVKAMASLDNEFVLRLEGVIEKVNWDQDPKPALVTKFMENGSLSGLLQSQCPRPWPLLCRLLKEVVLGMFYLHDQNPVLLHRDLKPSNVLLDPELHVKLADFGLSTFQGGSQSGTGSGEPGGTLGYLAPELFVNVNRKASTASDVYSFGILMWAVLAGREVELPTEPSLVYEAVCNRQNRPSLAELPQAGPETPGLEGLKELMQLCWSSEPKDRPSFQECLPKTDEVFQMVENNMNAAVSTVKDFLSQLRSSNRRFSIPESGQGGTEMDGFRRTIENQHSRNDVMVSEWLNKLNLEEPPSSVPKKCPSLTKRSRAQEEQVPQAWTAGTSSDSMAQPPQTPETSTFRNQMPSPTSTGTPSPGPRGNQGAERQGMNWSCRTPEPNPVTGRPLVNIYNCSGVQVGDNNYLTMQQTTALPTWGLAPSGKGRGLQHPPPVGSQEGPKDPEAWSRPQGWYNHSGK

Experiments:
MLKL (full length) = target: T1, MLKL (full length) (Homo sapiens, UniProt Q8NB16); test: KINOMEscan binding assay, MLKL; details: equilibrium dissociation constant, class symbols
T1 construct: purchased DiscoverX (KINOMEscan service); host or cells: E. coli BL21-derived (T7 phage) or HEK293
T1 sequence (Q8NB16 1-471): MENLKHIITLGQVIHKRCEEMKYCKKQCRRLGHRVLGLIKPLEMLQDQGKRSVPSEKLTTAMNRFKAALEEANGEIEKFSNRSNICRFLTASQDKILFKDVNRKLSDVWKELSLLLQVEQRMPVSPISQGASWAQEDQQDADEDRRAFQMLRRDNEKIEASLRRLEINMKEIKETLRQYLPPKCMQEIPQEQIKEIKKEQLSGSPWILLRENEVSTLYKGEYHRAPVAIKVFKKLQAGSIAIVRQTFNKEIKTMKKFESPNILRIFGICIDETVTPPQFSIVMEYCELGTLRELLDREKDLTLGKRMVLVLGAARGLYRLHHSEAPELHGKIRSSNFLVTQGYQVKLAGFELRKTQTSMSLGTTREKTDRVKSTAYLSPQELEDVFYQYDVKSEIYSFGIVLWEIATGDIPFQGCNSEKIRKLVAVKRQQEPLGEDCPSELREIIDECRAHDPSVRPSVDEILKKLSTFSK

[1] = test system: U937 human histiocytic leukemia cell line; test: Inhibition of TSQ induced necroptosis, 384 well plate format (CellTitre-Glo); details: U-937, U937 cells, TSQ cocktail (TNF, Smac mimetic, Q-VD-OPh), CelltiterGlo, read-out: Inhibition of TSQ-induced necroptosis (IC50 cell-based assay)
Experimental: […] ASSAY: Screening compounds for inhibition of TSQ induced necroptosis, 384 well plate format.
Cell Line ID: U937 human histiocytic leukemia cell line.
Cell Concentration (cells/well): Final cell density is 20000 cells per well.
Cell growth medium: HT-RPMI medium+7.4% Fetal Bovine Serum (FBS). Cells are cultured in Corning 150 cm^2 tissue culture flasks with vented caps at 37° C./5% CO2.
Incubation: Plates were incubated at 37° C./5% CO2 in a humidified incubator for 48 hours following addition of compounds and death stimuli (TSQ cocktail).
Compound concentration: 36 μM starting concentration, 1:3 dilution, 10 point
DMSO final concentration (% v/v): 0.3%.
Compounds in TSQ cocktail (T: TNF; S: Smac mimetic; Q: Q-VD-OPh) and their final concentrations:
hTNF-Fc (100 ng/ml)—produced by standard procedures as shown in Bossen et al., J Biol Chem, 2006, 281(20), 13964-13971. […]
The cellular assay was carried out according to the following steps: • 1. […] Read luminescence readout on a plate reader. […]
Percent viability was calculated for each compound according to equation (2):
[formula] • wherein • RawData is the readout of any cell containing a compound of the invention • TA is the total activity provided by the luminescence readout from DMSO only wells (columns 2 and 24)=100% viability • NSA is the non-specific activity provided by DMSO+TSQ wells (columns 1 and 23)=0% viability […]

RIP1 = target: T2, RIP1 (Homo sapiens, UniProt Q13546); test: KINOMEscan binding assay, RIP1; details: equilibrium dissociation constant, class symbols
T2 construct: purchased DiscoverX (KINOMEscan service); host or cells: E. coli BL21-derived (T7 phage) or HEK293
T2 sequence (Q13546 1-671): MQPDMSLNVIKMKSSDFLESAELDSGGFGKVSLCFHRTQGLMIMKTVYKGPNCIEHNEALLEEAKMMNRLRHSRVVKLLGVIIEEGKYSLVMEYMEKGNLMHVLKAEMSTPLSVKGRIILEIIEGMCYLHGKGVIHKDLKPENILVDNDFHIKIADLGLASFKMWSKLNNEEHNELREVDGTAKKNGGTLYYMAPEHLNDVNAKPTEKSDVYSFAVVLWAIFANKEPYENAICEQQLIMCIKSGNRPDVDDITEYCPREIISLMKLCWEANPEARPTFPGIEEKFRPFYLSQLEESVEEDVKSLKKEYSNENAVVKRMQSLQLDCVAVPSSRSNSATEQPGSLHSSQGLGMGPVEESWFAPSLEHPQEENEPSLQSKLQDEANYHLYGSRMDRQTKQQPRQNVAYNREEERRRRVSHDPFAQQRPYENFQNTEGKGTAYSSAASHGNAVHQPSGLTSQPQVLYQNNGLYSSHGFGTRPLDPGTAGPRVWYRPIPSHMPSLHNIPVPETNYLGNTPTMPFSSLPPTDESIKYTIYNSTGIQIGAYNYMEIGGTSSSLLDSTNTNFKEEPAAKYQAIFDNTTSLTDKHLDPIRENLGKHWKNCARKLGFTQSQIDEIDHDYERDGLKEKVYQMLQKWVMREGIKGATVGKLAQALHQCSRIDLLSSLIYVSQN

RIP3 = target: T3, RIP3 (Homo sapiens, UniProt Q9Y572); test: KINOMEscan binding assay, RIP3; details: equilibrium dissociation constant, class symbols
T3 construct: purchased DiscoverX (KINOMEscan service); host or cells: E. coli BL21-derived (T7 phage) or HEK293

| Structure (SMILES) | Kd (MLKL (full length)) [µM] | IC50 [1] [µM] | Kd (RIP1) [µM] | Kd (RIP3) [µM] |
| --- | --- | --- | --- | --- |
| COCC(Oc1cc(-c2n[nH]c(Nc3cc(C)on3)c2C(N)=O)ccc1NS(=O)(=O)C(F)F)c1ccc(F)cc1 (racemic) [Compound 298, 3-(4-((difluoromethyl)sulfonamido)-3-(1-(4-fluorophenyl)-2-methoxyethoxy)phenyl)-5-((5-methylisoxazol-3-yl)amino)-1H-pyrazole-4-carboxamide] | < 0.01 | < 0.01 | – | – |
| C[C@H](Oc1cc(-c2n[nH]c(Nc3cnccn3)c2C(N)=O)ccc1NS(=O)(=O)CC(F)(F)F)c1cccc(F)c1 [Compound 265] | < 0.01 | – | > 30 | > 30 |
| CCS(=O)(=O)Nc1ccc(-c2n[nH]c(Nc3cnccn3)c2C(N)=O)cc1OCc1ccc(Cl)cc1 [Compound 42, 3-(3-((4-chlorobenzyl)oxy)-4-(ethylsulfonamido)phenyl)-5-(pyrazin-2-ylamino)-1H-pyrazole-4-carboxamide] | < 0.01 | – | > 30 | > 30 |
| NC(=O)c1c(-c2ccc(NS(=O)(=O)CC(F)F)c(OCc3ccc(F)cc3)c2)n[nH]c1Nc1cnccn1 [Compound 180, 3-(4-((2,2-difluoroethyl)sulfonamido)-3-((4-fluorobenzyl)oxy)phenyl)-5-(pyrazin-2-ylamino)-1H-pyrazole-4-carboxamide] | < 0.01 | – | > 30 | > 30 |
| CCS(=O)(=O)Nc1ccc(-c2n[nH]c(Nc3cnc(C(F)(F)F)cn3)c2C(N)=O)cc1 [Compound 75, 3-(4-ethanesulfonamidophenyl)-5-{[5-(trifluoromethyl)pyrazin-2-yl]amino}-1H-pyrazole-4-carboxamide] | < 0.01 | – | > 30 | > 30 |
| C[C@H](Oc1cc(-c2n[nH]c(Nc3ccc(C4CCOCC4)cn3)c2C(N)=O)ccc1NS(=O)(=O)C(F)F)c1ccc(F)cc1 [Compound 278, (S)-3-(4-((difluoromethyl)sulfonamido)-3-(1-(4-fluorophenyl)ethoxy)phenyl)-5-((5-(tetrahydro-2H-pyran-4-yl)pyridin-2-yl)amino)-1H-pyrazole-4-carboxamide] | < 0.01 | – | > 30 | > 30 |
| CCS(=O)(=O)Nc1ccc(-c2n[nH]c(Nc3cnccn3)c2C(N)=O)cc1OCCc1ccc(F)cc1 [Compound 24] | < 0.01 | – | > 30 | > 30 |
| C[C@H](Oc1cc(-c2n[nH]c(Nc3ccccn3)c2C(N)=O)ccc1NS(=O)(=O)C(F)F)c1ccc(F)cc1 [Compound 260, 3-[4-(difluoromethanesulfonamido)-3-[(1S)-1-(4-fluorophenyl)ethoxy]phenyl]-5-[(pyridin-2-yl)amino]-1H-pyrazole-4-carboxamide] | < 0.01 | – | > 30 | > 30 |
| CC(C)S(=O)(=O)Nc1ccc(-c2n[nH]c(Nc3cccc(C(F)(F)F)n3)c2C(N)=O)cc1 [Compound 54, 3-(4-((1-methylethyl)sulfonamido)phenyl)-5-((6-(trifluoromethyl)pyridin-2-yl)amino)-1H-pyrazole-4-carboxamide] | < 0.01 | – | > 30 | 1 to 30 |
| CCS(=O)(=O)Nc1ccc(-c2n[nH]c(Nc3cccc(C(F)(F)F)n3)c2C(N)=O)cc1OCc1ccc(Cl)cc1 [Compound 4, 3-(3-((4-chlorobenzyl)oxy)-4-(ethylsulfonamido)phenyl)-5-((6-(trifluoromethyl)pyridin-2-yl)amino)-1H-pyrazole-4-carboxamide] | 0.01 to 1 | – | > 30 | > 30 |
